These results are taken from PubChem BioAssay AID504327 (National Center for Advancing Translational Sciences (NCATS), 2011).

Chains of the proteins cited; added tags and fusions are not shown.
UniProt Q92830, whole entry: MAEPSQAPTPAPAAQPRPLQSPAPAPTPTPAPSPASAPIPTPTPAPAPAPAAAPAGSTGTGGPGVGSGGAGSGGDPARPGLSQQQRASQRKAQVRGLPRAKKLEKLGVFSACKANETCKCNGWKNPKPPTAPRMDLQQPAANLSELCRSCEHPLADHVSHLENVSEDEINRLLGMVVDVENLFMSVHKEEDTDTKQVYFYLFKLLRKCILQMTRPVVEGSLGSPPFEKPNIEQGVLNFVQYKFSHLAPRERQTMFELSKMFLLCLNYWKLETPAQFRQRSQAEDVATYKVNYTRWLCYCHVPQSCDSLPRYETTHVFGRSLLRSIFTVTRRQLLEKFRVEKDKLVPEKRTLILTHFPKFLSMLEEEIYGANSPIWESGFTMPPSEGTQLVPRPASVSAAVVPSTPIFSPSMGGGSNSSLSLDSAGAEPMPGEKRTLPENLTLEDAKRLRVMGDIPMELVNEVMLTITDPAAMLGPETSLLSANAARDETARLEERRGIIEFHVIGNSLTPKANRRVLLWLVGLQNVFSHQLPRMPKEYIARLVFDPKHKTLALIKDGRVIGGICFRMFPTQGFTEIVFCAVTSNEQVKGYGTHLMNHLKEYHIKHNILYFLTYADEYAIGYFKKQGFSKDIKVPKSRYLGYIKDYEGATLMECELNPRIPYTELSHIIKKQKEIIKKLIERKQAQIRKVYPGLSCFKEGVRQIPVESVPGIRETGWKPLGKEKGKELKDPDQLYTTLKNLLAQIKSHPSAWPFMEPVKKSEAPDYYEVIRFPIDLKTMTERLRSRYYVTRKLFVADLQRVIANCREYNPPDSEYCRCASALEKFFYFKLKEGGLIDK

Where “and” joins values, the source holds several entries; their conditions need not be identical. Equal values may be shown once. The list shows a part of the results, in another mix than the full data. Some of these compounds have results that are not shown, active ones among them. Results filed as inconclusive are left out. Calls of active or inactive are those of the source. Calls follow the shape of the dose curve; as a rule, active = well fitted inhibition curve with a large enough effect; inconclusive = small, poorly fitted or top-dose-only effect, or another doubt; inactive = no such curve, though single readings can be large or run the other way.
% is scaled to controls: 0 for no effect and ±100 for the full control effect.

This assay has as its target Histone acetyltransferase KAT2A (Homo sapiens) (UniProt Q92830). The experiment in a line: qHTS Assay for Inhibitors of GCN5L2. To be noted: GCN5L2 HAT assay, ThioGlo1 CoA-SH fluorescence; at 58.9 µM (top of the series).
Turning to `O=C(NCC1(N2CCCCC2)CCCCC1)c1cccc(Cl)c1`, the activity change, negative = inhibition is inactive: 0.0698%. For the molecule `COc1ccc(C(=O)NCC2(N(C)C)CCCCC2)cc1Cl`, the activity change, negative = inhibition was inactive: -12.4%.

Turning to `COc1cccc(C(=O)NCC2(N3CCCCC3)CCCCC2)c1`, the activity change, negative = inhibition is inactive: -1.9%. Regarding `COc1ccc(Cl)cc1C(=O)NCC1(N(C)C)CCCCC1`, the activity change, negative = inhibition is inactive: 2.8%. On to `CN(C)C1(CNC(=O)c2ccc(Br)cc2)CCCCC1`, for which the activity change, negative = inhibition is inactive: -4.05%. `CN(C)c1cccc(C(=O)NCC2(N(C)C)CCCCC2)c1`: the activity change, negative = inhibition is inactive: -4.66%.

Take `CC(C)Oc1ccc(C(=O)NCC2(N(C)C)CCCCC2)cc1`: the activity change, negative = inhibition was inactive: -8.39% and inactive: -1.55%. For the molecule `Cc1cccc(C(=O)NCC2(N(C)C)CCCCC2)c1`, the activity change, negative = inhibition was inactive: -6.51%. Consider `COc1cc(C(=O)NCC2(N(C)C)CCCCC2)cc(OC)c1OC`, for which the activity change, negative = inhibition is inactive: -4.79%. For the molecule `COc1ccc(Br)c(C(=O)NCC2(N3CCCCC3)CCCCC2)c1`, the activity change, negative = inhibition is inactive: -2.95%. Regarding `CC(C)COc1ccc(C(=O)NCC2(N(C)C)CCCCC2)cc1`, the activity change, negative = inhibition was inactive: -5.21%. For the molecule `COc1cccc(C(=O)NCC2(N3CCOCC3)CCCCC2)c1`, the activity change, negative = inhibition was inactive: -5.4%. Consider `CN(C)C1(CNC(=O)c2ccccc2F)CCCCC1`, for which the activity change, negative = inhibition is inactive: -12.1%. Consider `Cc1ccc(C(=O)NCC2(N3CCCCC3)CCCCC2)cc1`, for which the activity change, negative = inhibition is inactive: 1.4%.

`CC(C)N1C(=O)CC2(CCN(CCOC(=O)C(O)(c3ccccc3)c3ccccc3)CC2)C1=O`: the activity change, negative = inhibition is inactive: -7.96%. For the molecule `CCN(CC)CC(C)C(C)OC(=O)C(O)(c1ccccc1)c1ccccc1` (stereo not drawn), the activity change, negative = inhibition was inactive: 4.18%. Turning to `CN(C)C1(CNC(=O)c2cccc(Cl)c2)CCCCC1`, the activity change, negative = inhibition was inactive: -1.63%. Turning to `COc1cc(SC)ccc1C(=O)NCC1(N(C)C)CCCCC1`, the activity change, negative = inhibition is inactive: -31%. In the case of `CN1[C@@H]2CC[C@H]1CC(OC(=O)C(O)(c1ccccc1)c1ccccc1)C2` (stereo partly drawn), the activity change, negative = inhibition was inactive: -0.248%. As to `O=C(NCC1(N2CCCCC2)CCCCC1)c1cc([N+](=O)[O-])ccc1Cl`, the activity change, negative = inhibition is inactive: -6.41%.

Regarding `CCN1CCCC(OC(=O)C2(O)c3ccccc3C=Cc3ccccc32)C1` (stereo not drawn), the activity change, negative = inhibition was inactive: 1.16%.

As for `Cc1cc(C(=O)NCC2(N3CCCCC3)CCCCC2)ccc1[N+](=O)[O-]`, the activity change, negative = inhibition is inactive: 3.08%. As to `O=C(NCC1(N2CCCCC2)CCCCC1)c1cccc(Br)c1`, the activity change, negative = inhibition was inactive: -4.45%.

With `COc1ccc(C(=O)NCC2(N(C)C)CCCCC2)cc1`, the activity change, negative = inhibition was inactive: 21.2%. Consider `CCOc1cccc(C(=O)NCC2(N(C)C)CCCCC2)c1`, for which the activity change, negative = inhibition was inactive: -11.2%. The value for `C=CCN1CCN(CCOC(=O)C(O)(c2ccccc2)c2ccccc2)CC1` was inactive: 2.52%; that for `O=C(NCC1(N2CCCCC2)CCCCC1)c1cc(F)c(F)cc1Cl` was inactive: -1.23%; that for `CN1CCCC(OC(=O)C(O)(c2ccccc2)c2ccccc2)C1` (stereo not drawn) was inactive: -0.867%. On to `CCCCOc1ccccc1C(=O)NCC1(N(C)C)CCCCC1`, for which the activity change, negative = inhibition is inactive: -5.75%.

As to `Cc1ccccc1C(=O)NCC1(N2CCCCC2)CCCCC1`, the activity change, negative = inhibition was inactive: 2.38%. Take `CN(C)C1(CNC(=O)c2ccccc2[N+](=O)[O-])CCCCC1`: the activity change, negative = inhibition is inactive: -3.49%. Consider `CN(C)c1ccc(C(=O)NCC2(N(C)C)CCCCC2)cc1`, for which the activity change, negative = inhibition is inactive: -2.12%. The value for `CN(C)C1CCCC1OC(=O)C(O)(c1ccccc1)c1ccccc1` (stereo not drawn) was inactive: 0.159%.
